## Measured affinities in a library of Ab-95 light chain variants

Reference: Engelhart et al. 2022, doi:10.1038/s41597-022-01779-4. File: FLAb, binding data.

The target is the same throughout: PDVDLGDISGINAS, from the HR2 region of SARS-CoV-2 spike.

Parent: Ab-95, a human scFv built as VH, three GGGGS repeats, VL. Only the CDRs of the light chain vary.
VH: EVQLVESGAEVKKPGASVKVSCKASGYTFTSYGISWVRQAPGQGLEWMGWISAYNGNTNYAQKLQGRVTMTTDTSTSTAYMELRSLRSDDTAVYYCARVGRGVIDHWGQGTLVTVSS
VL: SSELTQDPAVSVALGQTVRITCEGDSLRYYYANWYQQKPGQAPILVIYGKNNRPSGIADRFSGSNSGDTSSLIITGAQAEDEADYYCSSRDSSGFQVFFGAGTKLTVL

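The parent was found by panning a naive human phage display library on the peptide. Variants in AAYL52 differ from the parent at up to three CDR positions; double and triple changes were sampled at random. The scFvs were displayed on barcoded MATa yeast, the peptide on MATalpha yeast. Mating (16 h, 30 °C) was followed by selection of diploids and sequencing of their barcodes. A regression on co-assayed BCL2-family reference pairs converts the normalised counts of each replicate to an apparent Kd. Mating was done three times.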

Changes read parent residue, position, new residue, counted from the first residue of the VL shown. Numbers give log10(Kd / nM), so 0 is 1 nM and 3 is 1 µM. Smaller is tighter. Where no diploid with the target was found in that replicate, the entry reads "nd": below detection, most likely a poor binder, though not proof of it. In this assay the parent's reference entry averaged 2.31; its copy inside this library read 2.25. Empty control strains, which show no peptide, gave a signal in 28% of pairings with library AAYL52; the median was 3.91 and 95% of these signals were weaker than 2.90. No background was subtracted. The control count says in how many pairings with the empty strains this scFv gave a signal, with their mean in brackets.

changes,"log10 Kd, replicates",empty controls
D25C/S26G/R28C,2.74 2.53 2.25,4 of 9 (4.53)
Y30V/F98Y,2.25 2.08 2.10,5 of 9 (4.01)
L27D/N51M/S92L,3.95 nd nd,2 of 9 (4.20)
S26I/N33G/S93F,3.83 nd nd,1 of 9 (3.98)
D25A/G94V/Q96H,2.28 1.96 1.67,3 of 9 (4.12)
G24D/N52Q/V97F,2.84 2.45 2.29,1 of 9 (3.26)
N51G/S89H/S92Q,3.50 3.00 2.01,1 of 9 (3.60)
S92T/Q96A,2.59 3.06 3.44,2 of 9 (3.95)
N52T/R53I/P54F,4.85 5.52 3.61,4 of 9 (3.96)
E23D/A32P/V97Y,2.16 1.88 0.96,0 of 9
D25I/N52T/S92G,2.77 2.65 3.19,1 of 9 (3.85)
R28P/N33G/R53T,3.66 2.74 3.49,2 of 9 (4.57)
A32C/S92W/G94T,nd nd nd,1 of 9 (4.30)
Y29L/Y30T/S55G,2.11 1.99 2.38,4 of 9 (3.55)
G49T/K50D/P54C,4.14 nd nd,1 of 9 (3.70)
Y31D/N33M/S55C,1.93 1.89 1.48,1 of 9 (5.21)
R28D/P54N,4.98 4.05 4.71,2 of 9 (2.67)
S26D/D91C/F95R,2.99 2.87 2.91,3 of 9 (3.57)
A32F/S93R/Q96K,4.87 nd nd,3 of 9 (3.99)
D25K/S26E/R90T,nd nd nd,2 of 9 (3.51)
N33S/R90K/F95R,3.50 nd nd,1 of 9 (2.45)
G24V/L27H/V97Y,nd nd nd,1 of 9 (4.53)
D25A/S93D/V97G,nd nd nd,1 of 9 (3.47)
N33L,5.33 4.87 4.66,7 of 9 (3.97)
P54V/S88C,3.23 2.28 2.79,3 of 9 (3.61)
E23S/A32L/P54S,nd 3.68 3.32,3 of 9 (3.87)
R28N/K50V/S93Q,3.49 2.97 2.25,3 of 9 (4.14)
L27N/Y31G/S93V,nd 3.63 2.11,0 of 9
E23I/P54T/V97T,3.56 nd nd,0 of 9
A32S/D91E/F95C,5.41 nd nd,4 of 9 (3.97)
S26G/S88W/S93W,2.49 2.12 2.50,2 of 9 (3.66)
Y30F/N33G/P54M,2.30 2.85 2.90,8 of 9 (3.86)
S26H/R28E/R53V,3.33 nd 3.99,4 of 9 (3.48)
P54D/S88Q/S93L,nd 3.25 2.59,2 of 9 (4.12)
G24L/Y29E/S92E,nd nd nd,1 of 9 (3.88)
S26L/R90P/F98H,nd nd nd,0 of 9
N33L/G49D/R53E,nd nd 3.27,0 of 9
S26R/N33V/S55F,nd nd 3.25,0 of 9
R90C/S93V/F98S,nd 4.46 nd,0 of 9
R28F/D91R/F98H,3.48 4.09 nd,4 of 9 (3.70)
S26W/Y29W/Q96A,3.68 nd 3.47,5 of 9 (4.44)
D25K/Y29P/N52E,1.84 1.98 1.68,5 of 9 (4.54)
S26Q/A32V/G49V,3.23 nd 3.00,3 of 9 (3.77)
Y29K/S55R/S89R,nd nd nd,1 of 9 (4.69)
N52M/S89I/F98C,1.83 2.15 1.41,0 of 9
N52S/S92E/G94R,3.05 3.02 nd,1 of 9 (3.81)
D91K/G94W/F98T,nd nd nd,0 of 9

Extract of 8 entries:

changes,"log10 Kd, replicates",empty controls
N51G/S89H/S92Q,3.50 3.00 2.01,1 of 9 (3.60)
Y29L/Y30T/S55G,2.11 1.99 2.38,4 of 9 (3.55)
A32C/S92W/G94T,nd nd nd,1 of 9 (4.30)
D25I/N52T/S92G,2.77 2.65 3.19,1 of 9 (3.85)
D25K/S26E/R90T,nd nd nd,2 of 9 (3.51)
N33S/R90K/F95R,3.50 nd nd,1 of 9 (2.45)
A32S/D91E/F95C,5.41 nd nd,4 of 9 (3.97)
N33L/G49D/R53E,nd nd 3.27,0 of 9